miR-21 reporter: raises the signal of a miR-21 reporter | HeLa miR-21 FLuc reporter, luciferase, 48 h | Potency, µM (highest dose often 38.3 µM) | 340,000 tested, under 10 active | AID 2288; active = well fitted rising curve with a large enough effect; inconclusive = small, poorly fitted or top-dose-only effect; inactive = no such curve, though single readings can be large or run the other way;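 also: miR-21 action dims this reporter so a rising signal means less miR-21 action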
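HeLa cells stably expressing CMV-driven firefly luciferase with a downstream miR-21 binding sequence, endogenously expressing miR-21, were treated with titrations (up to about 40uM final) for 48 hours at 37 degree Celsius. Luciferase luminescence was read after lysis.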
ALDH1A1 block: inhibitors of human aldehyde dehydrogenase 1A1; P00352; Purified ALDH1A1, NADH fluorescence, propionaldehyde substrate; Potency, µM (series often up to 75.3 µM), hits mostly inhibitors; hit rate 7.3% among 220,000; AID 1030; active means well fitted inhibition curve with a large enough effect, not every such curve was filed as active; inconclusive means small, poorly fitted or top-dose-only effect, or another doubt; inactive means no such curve, though single readings can be large or run the other way
Sfp PPTase inh: inhibitors of Bacillus subtilis Sfp phosphopantetheinyl transferase; Q9F4F7; Biochemical Sfp PPTase activity, qHTS; Potency, µM, most hits filed as inhibitors; hit rate 3.5% among 310,000; AID 1490;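 further: the enzyme is Sfp with the accession as filed and its product quenches rhodamine fluorescence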
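Buffer: 50 mM Hepes-Na pH 7.6, 10 mM MgCl2, 0.01% Nonidet P-40, 0.01% BSA. Enzyme 15 nM, pre-exposed to compound 15 min; substrates then added and fluorescence change tracked over 30 min.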
LMNA splice mod: LMNA splicing modulation; HeLa LMNA splicing GFP/RFP minigene ratio, 48 h; Potency, µM (top dose mostly 46.1 µM), most hits filed as inhibitors; hit rate 0.01% among 200,000; active means well fitted inhibition curve with a large enough effect in the signal ratio, with a control signal flat, not every such curve was filed as active; inconclusive means small, poorly fitted or top-dose-only effect, or effect the other way, or a change in a side signal; the % refers to the signal ratio
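S3 HeLa stable clones carrying a lamin A-EGFP splicing minigene plus DsRed2 were seeded at 600 cells/well in Opti-MEM with 2% FBS, pin-dosed and incubated 48 h at 37°C. Acumen cytometry (488 nm) gave the GFP/RFP total-intensity ratio.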
G9a block: blocks human histone lysine methyltransferase G9a; Q96KQ7; G9a H3K9 monomethylation, AlphaScreen, 2 h; Potency, µM (series often up to 102 µM), usual class: inhibitors; hit rate 8.8% among 350,000; AID 504332; further: nearly all actives have a fitted effect of over 75% in size
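G9a (20 nM) was preincubated 15 min with compound, then reacted 2 h at room temperature with 500 nM biotin-H3K9 peptide and 20 µM SAM. Monomethyl-H3K9 detected by AlphaScreen using anti-H3K9me1 antibody.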
JMJD2E inh: JMJD2E (human) inhibition; B2RXH2; JMJD2E catalytic domain, FDH-coupled NADH fluorescence (FDH is formaldehyde dehydrogenase); Potency, µM (highest dose often 57.1 µM), actives largely listed as inhibitors; hit rate 1.6% among 230,000; AID 2147; active means well fitted inhibition curve with a large enough effect, not every such curve was filed as active; inconclusive means small, poorly fitted or top-dose-only effect, or another doubt; inactive means no such curve, though single readings can be large or run the other way; further: nearly all actives have a fitted effect of over 50% in size
A number is an active result; n = inactive; u = inconclusive; x = no result given; [ ] = dose if it differs, or a comment. Sampled rows, rich in hits. Any-hit rate of the full collection: about 13%. Unless noted, the call rests on the fitted dose curve; in most records, active means well fitted curve in the direction sought with a large enough effect; inconclusive means small, poorly fitted or top-dose-only effect, or another doubt; inactive means no such curve, though single readings can be large; an effect the other way counts as inactive or inconclusive.

SMILES	miR-21 reporter	ALDH1A1 block	Sfp PPTase inh	LMNA splice mod	G9a block	JMJD2E inh
COc1ccc(N2CCN(c3ncnc4scc(-c5ccc(F)cc5)c34)CC2)cc1	n	x	n	x	10µM	x
COc1ccc(N2CCN(c3ncnc4scc(-c5ccc(C)cc5)c34)CC2)cc1	n	x	n	x	25µM	x
COc1ccc(CN2CCN(c3ncnc4scc(-c5ccc(F)cc5)c34)CC2)cc1	n	x	n	x	n[2.33 µM]	x
COc1ccc(N2CCN(c3ncnc4scc(-c5ccccc5)c34)CC2)cc1	n	x	n	x	7.9µM	x
COc1ccc(-c2csc3ncnc(N4CCN(c5cccc(OC)c5)CC4)c23)cc1	n	x	n	x	x	x
CCOc1ccc2nc(NC(=O)Cn3[nH]c(=O)c4ccccc4c3=O)sc2c1	n	x	n	x	n	n
Cc1c(Cl)ccc2c(C(=O)NC(C)c3ccncc3)cc(-c3ccncc3)nc12 (stereo not drawn)	n	1.1µM	n	x	n	n
COC(=O)CNC(=O)c1cc(-c2ccncc2)nc2c(C)c(Cl)ccc12	n	13µM	n	x	n	n
CC(NC(=O)c1cc(F)c(F)cc1Cl)c1ccncc1 (stereo not drawn)	n	n	n	x	n	n
C=CCNC(=O)c1cc(-c2ccncc2)nc2c(C)cc(C)cc12	n	x	n	x	n	x
Fc1ccccc1OCC1CCCN(Cc2nc(CC3CC3)no2)C1 (stereo not drawn)	n	n	n	n	n	n
O=C1OC(c2ccccc2)=C/C1=C/c1cccs1	n	n	50µM	n	13µM	u
O=C1N=C(c2ccccc2)S/C1=C\c1cccs1	n	3.5µM	35µM	n	1.4µM	n
CC(=O)N1CCCc2cc(S(=O)(=O)N3CCN(c4ccc(F)cc4)CC3)ccc21	n	x	x	n	n	x
N#C/C(=C1/CCCCCN1)c1nc2ccccc2[nH]1	n	8.9µM	u	n	n	n
N#C/C(=C(/O)C(Cl)(Cl)Cl)c1nc2ccccc2[nH]1	n	x	n	x	n	n
C/C(O)=C(/C#N)c1nc2ccccc2[nH]1	n	n	n	n	10µM	n
N#C/C(=C1\CCCN1)c1ccc2ccccc2n1	n	n	n	n	n	n
CC1=Nc2ccccc2/C1=C/c1c(N)n2c(S(=O)(=O)C(C)C)nsc2nc1=O	n	n	n	x	n	n
CC1=Nc2ccc(C)cc2/C1=C/c1c(N)n2c(S(=O)(=O)C(C)C)nsc2nc1=O	n	u	n	x	50µM	n
COC(=O)c1ccc(NC(=O)NC(C)c2c(-n3cccc3)sc(C)c2C)cc1 (stereo not drawn)	u	x	x	x	n	x
CCc1ccc(NC(=O)NCC2CCN(c3ccc(OC)cc3)C2)cc1 (stereo not drawn)	n	x	n	x	u	n
CCOc1ccc(NC(=O)NCC2CCN(c3ccc(OC)cc3)C2)cc1 (stereo not drawn)	n	u	n	n	1µM	n
COc1ccc(N2CCC(CNC(=O)Nc3ccc(C)c(C)c3)C2)cc1 (stereo not drawn)	n	u	n	n	2µM	n
COCCCNC(=O)c1ccc(S(=O)(=O)c2ccc(Cl)cc2)c(NC(C)=O)c1	n	x	n	x	n	x
SMILES	miR-21 reporter	ALDH1A1 block	Sfp PPTase inh	LMNA splice mod	G9a block	JMJD2E inh
C[C@@H]1C(=O)OC2C[C@@]34[C@H]5C[C@@H](C(C)(C)C)[C@@]36C(O)C(=O)O[C@H]6O[C@@]4(C(=O)O5)[C@]21O (stereo partly drawn)	x	n	n	x	n	x
CSc1nc2nc3c(cn2n1)C(=O)CC(c1ccccc1)C3 (stereo not drawn)	n	u	n	n	n[12.7 µM]	n
Cn1c(=O)c2cc3c(nc2n(C)c1=O)CC(c1ccccc1)CC3=O (stereo not drawn)	n	14µM	n	x	n	n
CC1(C)CC(=O)C2=C(C1)Nc1cc3c(cc1C2c1ccc2c(c1)OCO2)OCO3 (stereo not drawn)	n	u	n	n	40µM	u
CCN(Cc1nc2cc(Cl)ccc2c(=O)[nH]1)C(=O)c1cccc(OCc2c(C)noc2C)c1	x	x	x	x	n[2.33 µM]	x
Cc1cc2c(cc1S(=O)(=O)N1CCN(c3cccc(C)c3C)CC1)OCCN2C	n	x	n	x	35µM	x
O=S(=O)(c1cccc2nonc12)N1CCN(c2ccccc2F)CC1	n	u	n	u	x	n
Cc1cccc(N2CCN(S(=O)(=O)c3cccc4nonc34)CC2)c1C	n	n	n	n	20µM	n

Source: PubChem
